For this test, the target named is 5-hydroxytryptamine receptor 2A (Rattus norvegicus) (UniProt P14842). As to the kind of experiment: Binding affinity was performed using [3H]ketanserin as the radioligand and stably transfected NIH3T3 cells expressing the 5-hydroxytryptamine 2A receptor (GF-62 cells).

What is called Ki is the dissociation constant of the complex between target and ligand, obtained from inhibition or displacement. Read a low Ki as tighter binding. On to `NCC1c2ccccc2-c2ccccc21`, for which the Ki stood at 4.49 µM. On to `NCC1c2ccccc2C=Cc2ccccc21`, for which the affinity corresponds to a Ki of 4.13 µM.
